By UniProt entry, the sequences of proteins in these tests, tags left out. Where a name states a change or a piece, a line headed by the entry shows the natural chain unless it says otherwise.
UniProt P37231: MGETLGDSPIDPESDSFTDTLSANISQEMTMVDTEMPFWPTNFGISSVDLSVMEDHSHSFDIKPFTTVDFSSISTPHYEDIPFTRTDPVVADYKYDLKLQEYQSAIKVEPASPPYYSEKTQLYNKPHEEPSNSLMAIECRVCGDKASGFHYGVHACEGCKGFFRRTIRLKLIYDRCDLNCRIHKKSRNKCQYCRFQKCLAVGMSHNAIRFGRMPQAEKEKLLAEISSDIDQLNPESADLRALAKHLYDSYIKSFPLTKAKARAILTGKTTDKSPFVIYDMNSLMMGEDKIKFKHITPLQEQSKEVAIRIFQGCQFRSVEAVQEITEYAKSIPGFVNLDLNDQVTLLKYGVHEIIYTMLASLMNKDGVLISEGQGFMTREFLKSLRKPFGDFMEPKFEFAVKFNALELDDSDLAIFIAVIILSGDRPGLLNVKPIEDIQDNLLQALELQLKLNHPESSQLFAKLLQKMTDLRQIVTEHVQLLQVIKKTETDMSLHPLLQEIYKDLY
UniProt Q03181: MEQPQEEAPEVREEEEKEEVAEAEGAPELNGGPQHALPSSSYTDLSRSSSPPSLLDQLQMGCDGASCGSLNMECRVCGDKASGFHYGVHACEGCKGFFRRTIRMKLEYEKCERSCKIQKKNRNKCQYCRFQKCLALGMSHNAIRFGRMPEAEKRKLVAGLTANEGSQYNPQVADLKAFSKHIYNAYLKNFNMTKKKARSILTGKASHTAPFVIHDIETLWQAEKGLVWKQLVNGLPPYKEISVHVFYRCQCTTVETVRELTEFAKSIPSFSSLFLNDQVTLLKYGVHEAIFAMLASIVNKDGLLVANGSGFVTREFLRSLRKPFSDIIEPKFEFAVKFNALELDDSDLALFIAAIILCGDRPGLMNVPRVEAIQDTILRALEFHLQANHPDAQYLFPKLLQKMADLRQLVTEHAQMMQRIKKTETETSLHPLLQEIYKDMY

According to ChEMBL document CHEMBL4354876, “A Selective Modulator of Peroxisome Proliferator-Activated Receptor γ with an Unprecedented Binding Mode” (J Med Chem, 2020):

Columns and labels:
[1] = biological target: PPAR delta/gamma (Homo sapiens) (UniProt P37231+Q03181); assay: Selectivity ratio of EC50 for partial agonist activity at Gal4-fused PPARdelta LBD (unknown origin) expressed in HEK293T cells to EC50 for partial agonist activity at Gal4-fused PPARgamma LBD (unknown origin) expressed in HEK293T cells; type: cell-based
[2] = organism: Homo sapiens; assay: Selectivity ratio of EC50 for partial agonist activity at Gal4-fused PPARalpha LBD (unknown origin) expressed in HEK293T cells to EC50 for partial agonist activity at Gal4-fused PPARgamma LBD (unknown origin) expressed in HEK293T cells; type: cell-based

**Q.** Which Ratio EC50 [1] does the source give for CCCCCCC(Sc1nc2ccc(NS(=O)(=O)c3ccc(Cl)cc3Cl)cc2s1)C(=O)O (configuration not stated) here?
**A.** 200

**Q.** What about the Ratio EC50 [2] of the same compound?
**A.** 250
